# AlphaSeq binding of Ab-14 heavy chain variants to a spike HR2 peptide

Binding partner: SARS-CoV-2 spike HR2 peptide, sequence PDVDLGDISGINAS.

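Phage display of a naive human antibody library on the peptide gave the parent. Designed CDR sequences, proposed from the first random library and measured here. Their group label is 14H_GPLM_HC (GPLM: also part of the Gaussian process libraries; HC: hill climbing; a sequence that several methods proposed may carry one label only). The assay is AlphaSeq: two haploid yeast populations carry antibody and antigen on their surface. The frequency of each diploid, read from paired DNA barcodes, reflects how well the two displayed proteins bind. The ratio of observed to expected reads was calibrated, replicate by replicate, on BCL2-family standards whose Kd was known from biolayer interferometry. Mating was done six times.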

Parent: Ab-14, a human scFv built as VH, a 15-residue (Gly4Ser)3 linker, VL. Only the CDRs of the heavy chain vary.
VH: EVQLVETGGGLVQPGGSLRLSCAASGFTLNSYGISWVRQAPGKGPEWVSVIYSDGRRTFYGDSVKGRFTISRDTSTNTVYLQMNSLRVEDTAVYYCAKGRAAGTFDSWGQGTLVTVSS
VL: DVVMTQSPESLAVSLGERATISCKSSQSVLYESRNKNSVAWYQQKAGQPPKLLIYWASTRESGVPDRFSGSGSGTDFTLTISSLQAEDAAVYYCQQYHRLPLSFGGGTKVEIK

Each variant is given by its three heavy chain CDRs, as the data file delimits them; those of the parent are GFTLNSYGIS, VIYSDGRRTFYGDSVK, GRAAGTFDS.
Numbers give log10(Kd / nM), so 0 is 1 nM and 3 is 1 µM. Smaller is tighter.
An entry "nd" has no value in the source: the pair was not observed among the diploids in that replicate. This suggests poor binding but is not conclusive.
In the paper, a design with two or fewer of six values counts as a poor binder.
A sequence measured in both rounds can read differently, since the two assays cover different ranges.
Background: pairings of all heavy chain designs with three empty control strains gave a value in 1% of cases (median 2.08, 5th percentile 0.84). Values in that range, when seen in few replicates, are hard to tell from nonspecific mating. The control count says in how many pairings with the empty strains this scFv gave a signal.

GFDLNSYGIS / VIYSDGRRTFYGDSVK / GRAAGLFWS: nd, nd, nd, nd, nd, nd (controls 0 of 18).
GFSLNDYGIS / VIYSDGRRTVYIDSVK / GRAAGTFDS: nd, nd, nd, nd, nd, nd (controls 0 of 18).
GFYLNEYGIS / VIYSDGRRTFYTDSVK / GRFAGTFDS: 0.38, 1.10, 0.80, 2.31, 0.63, 1.83 (controls 0 of 18).
GITLNEYGIS / VIYSDGRRTFYTDSVK / GRTAGTFDS: nd, nd, nd, nd, nd, nd (controls 0 of 18).
GFTLNDYGIS / VIYSDGRRTMYHDSVK / GRAAGTFDS: 0.53, nd, 1.12, 0.48, 2.50, 0.51 (controls 0 of 18).
GFTLNEYGIS / VIYSDGRRTWYSDSVK / GRAAGTFDS: 0.23, 0.21, 0.35, 0.31, 0.53, 0.22 (controls 0 of 18).
GFTLNEYGIS / VIYSDGRRTFYGQSVK / GRAAVTFDV: nd, nd, nd, nd, nd, nd (controls 0 of 18).
GFTLNSYGIS / VIYSDGRRTFYDDSVK / GQLAGTFDR: nd, nd, nd, 0.69, 1.67, 0.43 (controls 0 of 18).
GFTLEEYGIS / VIYSDGRRTFYGDSVK / GRAAGTFTS: nd, nd, nd, 1.44, nd, nd (controls 1 of 18).
GFTLNSYGIS / VIYSDGRRTFYSDSVK / GRAGGVFDS: nd, nd, nd, nd, nd, nd (controls 1 of 18).
GFSLNDYGIS / VIYSDGRRTFYGDSVK / GRAALTFDQ: nd, nd, nd, nd, nd, nd (controls 0 of 18).
GFTLNDYGIS / VIYSDGRRTFYIDEVK / GNAAGTFDS: 0.02, 0.04, -0.03, -0.21, -0.23, 0.09 (controls 3 of 18).
GFNLNEYGIS / VIYSDGRRTFYTDSVK / GRFAGTFDS: 0.42, 0.25, 0.45, 0.42, 0.58, 0.26 (controls 0 of 18).
GFTLMSYGIS / VIYADGRRTFYGDSVK / GRAAGTFSS: nd, nd, nd, nd, nd, nd (controls 0 of 18).
GFTLNSYGIS / VIYSDGRRTFYSDSVK / GRLGGTFDT: 0.98, 0.56, 1.21, 1.01, 0.61, 1.57 (controls 0 of 18).
GFQLNEYGIS / VIYSDGRRTFYGDSVK / GKAAGTFDQ: 0.70, 1.26, 0.90, 0.82, 1.47, 1.20 (controls 0 of 18).
GFDLNSYGIS / VIYSDGRRTFYHDSVK / GQAAGTFDS: 0.35, 0.40, 0.46, 0.17, 0.21, 0.36 (controls 1 of 18).
GFTLNEYGIS / VIYSDGRRTFYKDSVK / GRQAGTFDS: 1.68, 0.29, 0.40, 0.01, 0.59, 0.35 (controls 1 of 18).
GFSLNDYGIS / VIYSDGRRTFYGDSVK / GRAAGTFAS: nd, 3.30, nd, nd, 1.45, 3.08 (controls 0 of 18).
GFTLNSYGIS / VIYSDGRRTFYDDSVK / GQLAGTFDM: 1.10, 0.37, nd, nd, 1.88, 0.93 (controls 0 of 18).
GFTLNEYGIS / VIYSDGRRTFYMDSVK / GRHAGTFDS: 1.24, 1.12, 0.76, 1.13, 0.85, 0.76 (controls 1 of 18).
GFSLNDYGIS / VIYSDGRRTFYGDSVK / GRAAGTFWS: 0.08, -0.13, -0.31, -0.26, -0.13, 0.06 (controls 0 of 18).
GFTLDSYGIS / VIYSDGRRTFYSDSVK / GRAGGTFDT: 0.79, 0.57, 0.35, 0.62, 0.63, 0.61 (controls 1 of 18).
GFTLNEYGIS / VIYSDGRRTFYIDSVK / GQAAGTFDS: 0.45, nd, 0.50, 1.09, 0.70, 0.41 (controls 0 of 18).
GFTLNDYGIS / VIYSDGRRTFYGDSVK / GRQAGTFDI: 1.42, 2.09, 0.84, 0.91, 1.46, 1.84 (controls 0 of 18).
GFTLNSYGIS / VIYSDGRRTFYKDSVK / GKLAGTFDS: nd, 1.20, 1.45, 1.84, 2.20, 2.42 (controls 0 of 18).
GFTLNDYGIS / VIYSDGRRTWYHDSVK / GRAAGTFDS: 0.72, 1.22, 1.44, 0.61, 0.96, 2.32 (controls 0 of 18).
GFSLNDYGIS / VIYSDGRRTFYGDSVK / GRAAGTFRS: nd, nd, nd, nd, nd, nd (controls 0 of 18).
GFTLNEYGIS / VIYSDGRRTFYADSVK / GRFAGTFDS: 0.27, 0.51, 0.20, 0.42, 0.41, 0.59 (controls 1 of 18).
GFTLNDYGIS / VIYSDGQRTFYSDSVK / GRAAGTFDS: 1.39, 2.77, 0.67, 0.60, 1.45, 3.73 (controls 0 of 18).

Repeated from above, the 3 best binders with a signal in all replicates:

| CDR-H1 | CDR-H2 | CDR-H3 | replicates, log10 nM | empty controls |
|---|---|---|---|---|
| GFSLNDYGIS | VIYSDGRRTFYGDSVK | GRAAGTFWS | 0.08, -0.13, -0.31, -0.26, -0.13, 0.06 | 0/18 |
| GFTLNDYGIS | VIYSDGRRTFYIDEVK | GNAAGTFDS | 0.02, 0.04, -0.03, -0.21, -0.23, 0.09 | 3/18 |
| GFTLNEYGIS | VIYSDGRRTWYSDSVK | GRAAGTFDS | 0.23, 0.21, 0.35, 0.31, 0.53, 0.22 | 0/18 |

Data: MIT Lincoln Laboratory AlphaSeq set, Li et al. 2023, doi:10.1038/s41467-023-39022-2, as distributed in FLAb.